Literature values, collected in PMC10762250, “Molecular mechanism of antihistamines recognition and regulation of the histamine H1 receptor” (Nature Communications, 2024).

System: human H1R F435A
Conditions: cited from earlier work

Compound: COc1ccc(CN(CCN(C)C)c2ccccn2)cc1 [mepyramine]
- Decrease in affinity by mutation: 4 fold
